This note sets out measurements from ChEMBL document CHEMBL4715844, “Structure-based virtual screening and biological evaluation of novel non-bisphosphonate farnesyl pyrophosphate synthase inhibitors” (Eur J Med Chem, 2020).

The structures appear in SMILES notation.

The test system of one experiment is HCT-116. The experiment can be described thus: Cytotoxicity against FPPS-positive human HCT116 cells assessed as reduction in cell viability measured after 48 hrs by MTT assay. It counts as functional, cell-based. A general note: Tetrazolium dyes change colour on reduction, which living cells bring about.
A further experiment deals with LoVo. The experiment can be described thus: Cytotoxicity against FPPS-positive human Lovo cells assessed as reduction in cell viability measured after 48 hrs by MTT assay. It counts as functional, cell-based.

As for `COc1ccccc1CN(CCS(=O)(=O)N1CCNCC1)S(=O)(=O)c1ccc(C)cc1`, the Activity entry in the experiment with HCT-116 and in the experiment with LoVo was “Dose-dependent effect” in each case.
